{"source": "patent US20250255808A1", "about": "“NANOGEL PLATFORM TECHNOLOGY FOR LONG-TERM BIOLOGICS THERAPY” (UNIVERSITY OF MARYLAND, BALTIMORE, priority 2022, published 2025)", "test": "In vivo insulin pharmacokinetics and ocular distribution after subconjunctival injection", "design": "species or system SD rats", "procedure": "Insulin-loaded 72A nanogels containing 10% acrylic acid as bulk and surface modifier in PBS (20 mg/mL; equivalent to 3 mg/mL insulin) were injected subconjunctivally (20 μL) to the left eye of anaesthetized SD rats (n=5) using a 25 gauge Hamilton™ needle. The right eyes were injected with PBS to serve as sham controls. After 1, 3 and 7 days of injection, the rats were euthanized, their eyes were inoculated, and the aqueous humor (AH), vitreous humor (VH), cornea, lens, Iris/ciliary body (CB), sclera, choroid and retina were collected in a weighted 2 mL flat bottom Eppendorf™ microcentrifuge tube and were kept at −80° C. until tissue homogenization and insulin extraction.\nSimilarly, another group of rats (n=5) were injected with an equivalent amount of insulin in PBS. Before tissue homogenization, the tough tissues (lens, cornea and sclera) were ground by a CryoGrinder™ System (OPS Diagnostics LLC) at cryogenic temperatures. […]\nPrior to the homogenization step, 20 μL 1 mg/mL bovine insulin was added as an internal standard. […] Then the insulin in the desolate was extracted using a solid phase extraction column and the insulin trapped in the column was extracted in 20 μL solvent mixture (acetonitrile: isopropanol: water: HAC 50:24:24:2 v/v/v/v) and quantitated using LC-MS. […]", "data": [{"substance": "insulin", "values": [{"measurement": "insulin detected in ocular tissues", "setting": "after 3 and 7 days", "value": "no appreciable amount"}, {"measurement": "insulin recovered in different ocular tissues", "setting": "one day after subconjunctival injection", "value": "significant amount"}]}]}
